Results from patent US20260021196A1, “HOMOGENEOUS ANTIBODY-CONJUGATES WITH HIGH PAYLOAD LOADING” (SYNAFFIX B.V., priority 2023, published 2026).

Test system: NCI-N87 (HER2 3+) cells
Experiment: In vitro cytotoxicity, resazurin cell viability (Examples 131-133)
Format: cell-based
Conditions: Table 10 / FIG. 24A, mitomycin ADCs with varying DAR, 5 days incubation
Method: (§1) The cells were incubated for 5 days in a humidified atmosphere at 37° C. and 5% CO2. […] After approximately 4 hours in a humidified atmosphere at 37° C. and 5% CO2 the fluorescence was detected with a fluorescence plate reader (Infinite® M1000 Tecan) at 560 nm excitation and 590 nm emission. The relative fluorescent units (RFU) were normalized to cell viability percentage by setting wells without cells at 0% viability and wells with untreated cells at 100% viability (see FIGS. 22A-22C).
After approximately 4 hours in a humidified atmosphere at 37° C. and 5% CO2 the fluorescence was detected with a fluorescence plate reader (Infinite® M1000 Tecan) at 560 nm excitation and 590 nm emission. The relative fluorescent units (RFU) were normalized to cell viability percentage by setting wells without cells at 0% viability and wells with untreated cells at 100% viability (see FIGS. 23A-23B).
as §1, with “24A-24B).” for “22A-22C).”

trastuzumab-(72)2
IC50: 0.25 nM
